We go through one compound from patent US4882349A, “Pyrrolacetic amides having antiinflammatory activity” (priority 1982, dated 1989).

As usually defined, the LD50 is the dose at which mortality reaches 50%.

Series [1] can be described thus: in vivo. The settings on record: mouse, po.
The nature of series [2]: in vivo. The settings on record: rat, po.

`Cc1ccc(C(=O)c2ccc(CC(=O)O)n2C)cc1` [Tolmetin Na.2H2 O, 1-methyl-5-p-toluoylpyrrole-2-acetic acid, reference compound]: the values for the LD50 in “in vivo [1]” and in the series “in vivo [2]” were 899 mg/kg and 914 mg/kg, respectively.
